Measured values: PubChem BioAssay AID878 (University of Pittsburgh Molecular Library Screening Center, 2007)
Only a part is listed here, and it is no random draw. Activity calls are given as the source filed them.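 How the source made its calls: active means activation of at least 50% relative to the plate's high and low controls in the primary single-dose screen; inactive means activation below 50%.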

Assay: compounds producing H2O2 with reducing agent – biochemical, NIH compound library profiling, artefact control for MLSCN library redox annotation, primary screen (AID 878);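 further: compound incubated with DTT at 0.8 mM final as the reducing agent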
Conditions: DTT-dependent redox cycling H2O2, phenol red/HRP absorbance; at 10 µM; stronger effect = higher value; 100% = 100 µM peroxide control, 0% = buffer

| Compound | activation |
| --- | --- |
| CCc1ccc(OP(C)(=O)Nc2cccnc2)cc1 (configuration not stated) | inactive: -2.1% |
| CCOP(C)(=S)SCC(=O)NC(C)(CC)C(=O)O (configuration not stated) | inactive: 3.23% |
